Measured values as given in US8802694B2, “3,6-diazabicyclo[3.1.1]heptanes as neuronal nicotinic acetycholine receptor ligands” (Targacept, Inc., priority 2009, dated 2014).

Amino acid sequences for entries named in this document (tags omitted). Residues count along the entry.
UniProt P17787, 26-502 limits assumed: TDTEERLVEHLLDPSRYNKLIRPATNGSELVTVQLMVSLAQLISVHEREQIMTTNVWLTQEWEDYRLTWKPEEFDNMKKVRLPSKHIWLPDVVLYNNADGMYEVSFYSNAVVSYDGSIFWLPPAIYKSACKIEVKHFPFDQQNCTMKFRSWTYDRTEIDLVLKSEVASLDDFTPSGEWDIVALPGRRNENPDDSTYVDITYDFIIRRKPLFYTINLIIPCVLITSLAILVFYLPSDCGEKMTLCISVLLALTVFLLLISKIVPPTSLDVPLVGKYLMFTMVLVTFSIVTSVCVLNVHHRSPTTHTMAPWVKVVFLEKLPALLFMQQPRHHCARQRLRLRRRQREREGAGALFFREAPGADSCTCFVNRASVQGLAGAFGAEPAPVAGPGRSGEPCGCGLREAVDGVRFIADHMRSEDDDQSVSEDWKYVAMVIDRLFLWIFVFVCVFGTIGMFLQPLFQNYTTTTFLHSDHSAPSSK
UniProt P43681, 29-627 limits assumed: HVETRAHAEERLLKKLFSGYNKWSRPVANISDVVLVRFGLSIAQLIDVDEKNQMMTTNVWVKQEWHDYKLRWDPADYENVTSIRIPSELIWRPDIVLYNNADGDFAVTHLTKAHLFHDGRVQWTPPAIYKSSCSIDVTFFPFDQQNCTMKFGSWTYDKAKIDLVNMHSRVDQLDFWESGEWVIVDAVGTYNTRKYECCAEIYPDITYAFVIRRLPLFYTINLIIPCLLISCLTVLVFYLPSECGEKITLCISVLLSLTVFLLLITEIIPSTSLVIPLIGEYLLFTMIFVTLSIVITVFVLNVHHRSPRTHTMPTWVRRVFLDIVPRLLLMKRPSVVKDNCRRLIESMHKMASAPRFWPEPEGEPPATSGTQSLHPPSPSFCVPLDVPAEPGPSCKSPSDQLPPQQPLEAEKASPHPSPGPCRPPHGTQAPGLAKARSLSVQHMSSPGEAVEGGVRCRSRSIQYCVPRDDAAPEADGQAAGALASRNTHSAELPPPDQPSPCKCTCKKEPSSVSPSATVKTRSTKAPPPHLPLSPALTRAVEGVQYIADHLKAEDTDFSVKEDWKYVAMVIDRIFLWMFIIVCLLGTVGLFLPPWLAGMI

Biological target: Human α4β2 (Homo sapiens, UniProt P17787+P43681)
Assay: Competition binding to human α4β2 receptors in membranes of SH-EP1/human α4β2 cells ([3H]-nicotine)
Conditions: read-out: Human α4β2 Ki, membrane competition binding

## Cc1ncoc1C(=O)N1CC2CC(C1)N2
  Ki: 19 nM
